Laboratory results as given in patent publication US20120135089A1, “E3 LIGASE INHIBITORS” (priority 2009, published 2012).

By UniProt entry, the sequences of proteins in these tests, tags left out. Where a name states a change or a piece, a line headed by the entry shows the natural chain unless it says otherwise. Residues count along the entry.
UniProt Q00987, whole entry: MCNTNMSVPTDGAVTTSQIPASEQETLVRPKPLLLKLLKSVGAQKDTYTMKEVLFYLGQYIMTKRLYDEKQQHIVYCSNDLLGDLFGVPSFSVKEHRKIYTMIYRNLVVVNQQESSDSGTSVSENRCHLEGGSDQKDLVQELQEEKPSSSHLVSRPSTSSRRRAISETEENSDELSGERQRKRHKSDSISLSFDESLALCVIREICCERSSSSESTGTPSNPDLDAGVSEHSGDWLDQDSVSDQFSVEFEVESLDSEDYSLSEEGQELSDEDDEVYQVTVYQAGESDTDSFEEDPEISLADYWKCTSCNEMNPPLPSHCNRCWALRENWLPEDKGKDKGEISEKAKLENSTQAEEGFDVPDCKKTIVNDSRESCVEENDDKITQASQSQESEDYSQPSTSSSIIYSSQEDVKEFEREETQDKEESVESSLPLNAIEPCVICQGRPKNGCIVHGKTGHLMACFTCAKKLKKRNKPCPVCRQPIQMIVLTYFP
UniProt Q00987, whole entry C464A: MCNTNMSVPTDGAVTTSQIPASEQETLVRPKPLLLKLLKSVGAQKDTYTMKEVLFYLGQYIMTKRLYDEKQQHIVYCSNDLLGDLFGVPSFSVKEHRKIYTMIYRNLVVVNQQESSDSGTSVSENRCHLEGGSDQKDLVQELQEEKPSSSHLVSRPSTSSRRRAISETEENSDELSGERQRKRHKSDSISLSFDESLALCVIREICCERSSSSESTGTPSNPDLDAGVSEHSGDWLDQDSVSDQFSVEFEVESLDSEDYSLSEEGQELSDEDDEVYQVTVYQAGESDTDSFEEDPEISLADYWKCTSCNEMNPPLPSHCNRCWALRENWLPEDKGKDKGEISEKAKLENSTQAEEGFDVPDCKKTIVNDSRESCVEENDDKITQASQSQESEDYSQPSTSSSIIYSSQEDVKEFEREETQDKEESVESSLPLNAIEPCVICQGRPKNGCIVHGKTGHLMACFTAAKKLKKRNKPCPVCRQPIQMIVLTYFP
UniProt Q00987, 400-491 limits assumed: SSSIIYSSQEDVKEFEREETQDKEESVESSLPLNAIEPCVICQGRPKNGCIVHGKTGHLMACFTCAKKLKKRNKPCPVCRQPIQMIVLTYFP

How the values were obtained:
[1] = target: Mdm2-luciferase fusion protein (Homo sapiens, UniProt Q00987); test: cell-based Mdm2 auto-ubiquitination luminescence assay, Mdm2-luciferase cell line; settings: 384-well format
[2] = target: Mdm2(C464A)-luciferase fusion protein (Homo sapiens, UniProt Q00987, C464A); test: counter screen in control Mdm2(C464A)-luciferase cell line; assay type: cell-based
Procedure: The Mdm2-luciferase cell line was seeded at 7,500 cells per well, in 384-well white plates (PerkinElmer, Waltham, Mass., Cat. No. 6007688), in 27 μl of media (DMEM with FBS and P/S). Assay plates with cells were incubated at 37° C. overnight to allow cells to adhere. After 24 hours, 2 μl from the ‘mother’ plate (4 mg/ml) was transferred to a ‘daughter plate’ containing 148 μl media in order to dilute the compound 1:75. Next, 3 μl from each well of the ‘daughter plates’ was added to triplicate assay plates for a final concentration of 5.33 μg/ml. Assay plates were incubated at 37° C. for 2 hours. Then the cells were lysed with the addition of 30 μl of luminescence buffer (PerkinElmer, Cat. No. 6016989), and the plates were incubated at room temperature for 30 minutes before being analyzed on a Victor3 Plate Reader (PerkinElmer) for luminescence. Compounds that caused an increase in luminescence greater than 30% were re-ordered for further analysis. […] This was determined by comparing the negative control, no treatment, to the positive control, 10 μM MG132. […]
The above experiments verified that the cell lines could function as a valid system to screen for Mdm2 E3 ligase inhibitors. […] All compounds were incubated with the Mdm2-luciferase cell line for 2 hours, after which relative luminescence was detected by the addition of a luminesence buffer. […]

Mdm2 and p53 levels = test: Western blot of Mdm2 and p53 protein levels in cell lines; assay type: cell-based, human; settings: 6 hours
Procedure: Cells were plated in 384-well format and treated with MG132 (2 hours) or cycloheximide (30 minutes). Steadylite luminescence buffer (PerkinElmer) was added and the relative luminescence levels determined on a Victor3 Plate Reader. Each graph represents the median of 5 replicates normalized to a no treatment control, and one standard deviation is shown. The EC50 for MEL23 and MEL24 are 2.7 μg/ml and 3.0 μg/ml (7.5 μM and 9.2 μM) respectively. The graphs and EC50 values were determined using Graphpad PRISM®. […] U2OS, RKO, and HCT116 cells (p53 wild-type) were incubated with 5 μg/ml (14 μM) of MEL23, 5 μg/ml (15 μM) of MEL24, or 10 μM of MG132 for 6 hours. Cells were lysed and analyzed by Western blotting using anti-Mdm2, anti-p53, and anti-eIF4E antibodies. NT indicates a no treatment control. […] MCF7 cells (p53 wild-type) were incubated with 30 μg/ml (51 μM) etoposide alone or in combination with 50 μM AlIn or 5 μg/ml (14 μM) MEL23, or 5 μg/ml (15 μM) MEL24 for 16 hours. Cells were lysed and analyzed by Western blotting using anti-MDMX and anti-actin antibodies.
H1229 cells were transfected with Mdm2-Flag or remained untransfected. […] Cells were lysed and analyzed by Western blotting using anti-Mdm2 and anti-actin antibodies. […] Cells were lysed and analyzed by Western blotting using anti-Mdm2, anti-p53, and anti-actin antibodies. […] Cells were lysed and analyzed by Western blotting using anti-Mdm2, anti-p53, anti-phospho-Ser15 p53, and anti-eiF4E antibodies.
Cells were seeded and treated with the indicated compound(s). […] Protein content was quantified using a Biorad protein assay reagent (Bio-Rad Laboratories, Hercules, Calif., Cat. No. 500-0006). […]
Referring now to FIG. 27f, endogenous Mdm2 and p53 protein levels are increased with MEL3 but not MEL4 treatment as shown. […] Cells were lysed and analyzed by Western blotting using anti-Mdm2, anti-p53, and anti-actin antibodies. […]
Referring now to FIG. 28e, endogenous Mdm2 and p53 protein levels with MEL17 treatment are shown. […] Cells were lysed and analyzed by Western blotting using anti-Mdm2, anti-p53, and anti-actin antibodies. […]

GST-Mdm2(400-491) = GST-Mdm2(400-491) (Homo sapiens, UniProt Q00987); test: in vitro ubiquitination assay, Mdm2 RING domain; assay type: biochemical
Procedure: Radiolabeled in vitro ubiquitination assays were carried out in 30 μl reaction mixtures with ^32P-labeled ubiquitin. 500 ng GST-Mdm2 (residues 400-491) and GST-MdmX (residues 410-490) were used for the RING-RING reactions. The products of the reaction were resolved on a SDS-PAGE gel and visualized by autoradiography.
Referring now to FIGS. 27c and d, in vitro ubiquitination reactions with dilutions of MEL3 and MEL4 are shown. Briefly, 25 ng of E1, 25 ng of Ubch5C, 1 μg of ubiquitin, and 500 ng of GST-Mdm2(400-491) were incubated with or without the indicated compound for 1 hour at 37° C. in ubiquitination buffer. Samples were analyzed by Western blotting with anti-GST. PC indicates positive control and NC indicates negative controls without UbCH5C protein. In FIG. 27c, compounds were tested at 120 μg/ml, and in FIG. 27(d) the MEL4 was tested in a 2-fold dilution series, 100, 50, 25, 12.5, 6.25, and 3.125 μg/ml. Brackets indicate slower migrating species of the proteins are the ubiquitin-conjugated forms.

60 tumor cell lines = test: NCl60 screen (NIH); assay type: cell-based
Procedure: (§1) MEL17 was also sent to the National Institutes of Health (NIH) for analysis in the NCl60 screen. This is a service provide by the NIH, that tests novel compounds for killing in 60 tumor cell lines. […] It was then tested in a hollow-fiber assay. 12 tumor cell lines were tested in two concentrations and at two sites, subcutaneous implants and intraperitoneal implants. A 50% or greater reduction in percent net growth in the treated samples compared to the vehicle control was considered a positive result, and given a score of 2. Out of a possible score of 96 (12 cell lines×2 concentrations×2 sites×a score of 2), MEL17 got a score of 4.

[3] = preliminary in vivo mouse toxicity; settings: all concentrations tested up to 400 mg/kg/dose
12 tumor cell lines = test: hollow-fiber assay; assay type: in vivo, mouse; settings: out of a possible score of 96 (12 cell lines×2 concentrations×2 sites×a score of 2)
Procedure: as §1

[4] = test system: Mdm2-ubiquitin conjugates; test: cell-based Mdm2 ubiquitination assay (HA-ubiquitin immunoprecipitation); set-up: species or system human; settings: Mdm2-luciferase cells, with 10 μM MG132
Procedure: To obtain the results shown in FIG. 4A, Mdm2-luciferase cells were transfected with ubiquitin-HA and treated 8 hours later with 10 μg/ml (28 μM) MEL23, 10 μg/ml (31 μM) MEL24, or a DMSO control. After 16 hours, cells were additionally treated with 10 μM MG132 or a DMSO control. After 3 hours, cells were lysed and immunoprecipitated for 3 hours with anti-HA affinity matrix. Total lysates and immunoprecipitated samples were analyzed by Western blotting using anti-Mdm2 antibody. NT indicates a no treatment control. […] After 8 hours, cells were treated with 10 μg/ml (28 μM) MEL23, 10 μg/ml (31 μM) MEL24, or a DMSO control. After 16 hours, cells were additionally treated with 10 μM MG132 or a DMSO control. After 3 hours cells were lysed and analyzed by Western blotting using anti-p53 antibody. […]
The Mdm2-luciferase cell line was transfected with HA-ubiquitin and pre-treated with 10 μg/ml MEL23 or MEL24, followed by 10 μM MG132. […] Cells lysates were immunoprecipitated with an anti-HA antibody and analyzed by Western blotting. […]
Briefly, Mdm2-luciferase cells were transfected with HA-ubiquitin. […] Input lysates and immunoprecipitated samples were analyzed by Western blotting using anti-Mdm2 antibody.
Referring now to FIG. 28d, as shown, MEL17 inhibits Mdm2 auto-ubiquitination in a cell-based assay. […] Input lysates and immunoprecipitated samples were analyzed by Western blotting using anti-Mdm2 antibody. […]

SMILES	luminescence of the Mdm2-luciferase cell line [1]	luminescence of the control Mdm2(C464A)-luciferase cell line [2]	Mdm2 levels (Mdm2 and p53 levels; RKO, U2OS, HCT116, 5 μg/ml)	p53 levels (Mdm2 and p53 levels; RKO, U2OS, HCT116, 5 μg/ml)	ubiquitination of Mdm2 RING domain (homo-complex) (GST-Mdm2(400-491))	killing profile in 60 tumor cell lines (60 tumor cell lines)	toxicity [3]	hollow-fiber assay score (12 tumor cell lines)	p53 levels in RKO and RKO-E6 cells (Mdm2 and p53 levels; isogenic RKO and RKO-E6 (HPV-E6) cells)	Mdm2 ubiquitination in cells (Mdm2-ubiquitin conjugates) [4]
CC1CCN(Cc2cc(Cl)c3cccnc3c2O)CC1	consistent activity in the cell-based assay	without significantly affecting	increased Mdm2 in U2OS but not RKO or HCT116	increased p53 levels in RK0 and U2OS but not HCT116 cells	does not inhibit	unique and interesting killing profile	non-toxic	4	–	–
COc1cc(OC)c2c(=O)cc(-c3ccc(OC)c(-c4c(OC)cc(OC)c5c(=O)cc(-c6ccccc6)oc45)c3)oc2c1	consistent activity in the cell-based assay	without significantly affecting	–	–	not	–	–	–	increases p53 levels in both RKO and RKO E6 cell lines	did not inhibit
